In patent US20070196883:

Target: GST-PIF (glutathione-S-transferase fusion of the C-terminal 77 amino acids of PRK2)

B1: wild type GST-PDK1 (protein)
chain: MARTTSQLYDAVPIQSSVVLCSCPSPSMVRTQTESSTPPGIPGGSRQGPAMDGTAAEPRPGAGSLQHAQPPPQPRKKRPEDFKFGKILGEGSFSTVVLARELATSREYAIKILEKRHIIKENKVPYVTRERDVMSRLDHPFFVKLYFTFQDDEKLYFGLSYAKNGELLKYIRKIGSFDETCTRFYTAEIVSALEYLHGKGIIHRDLKPENILLNEDMHIQITDFGTAKVLSPESKQARANSFVGTAQYVSPELLTEKSACKSSDLWALGCIIYQLVAGLPPFRAGNEYLIFQKIIKLEYDFPEKFFPKARDLVEKLLVLDATKRLGCEEMEGYGPLKAHPFFESVTWENLHQQTPPKLTAYLPAMSEDDEDCYGNYDNLLSQFGCMQVSSSSSSHSLSASDTGLPQRSGSNIEQYIHDLDSNSFELDLQFSEDEKRLLLEKQAGGNPWHQFVENNLILKMGPVDKRKGLFARRRQLLLTEGPHLYYVDPVNKVLKGEIPWSQELRPEAKNFKTFFVHTPNRTYYLMDPSGNAHKWCRKIQEVWRQRYQSHPDAAVQ
  rate of phosphorylation of Thr308 against Ser473 of PKBα by the GST-PIF*/PDK1 complex: phosphorylates Thr308 of PKBα at twice the rate of Ser473
